Assay: Metal chelating activity assessed as compound-Fe3+ complex formation by measuring fluorescence signal by fluorescence spectrophotometry

CC(C)OP(=O)(F)OC(C)C
Activity: 20.9

Reference: ChEMBL document CHEMBL5344424, “3-Hydroxypyridin-4(1H)-one Derivatives as pqs Quorum Sensing Inhibitors Attenuate Virulence and Reduce Antibiotic Resistance in Pseudomonas aeruginosa” (J Med Chem, 2023)
